Reference: ChEMBL document CHEMBL1123878, “Potential antitumor agents. 50. In vivo solid-tumor activity of derivatives of N-[2-(dimethylamino)ethyl]acridine-4-carboxamide” (J Med Chem, 1987)

Key:
[1] = system: Nucleic Acid; experiment: Binding constant to poly(dG-dC)DNA by ethidium bromide displacement; format: nucleic-acid assay
How it was run: (§1)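 Association constants derived from the drug concentration displacing 50% of bound ethidium from the polynucleotide, assuming competitive binding of drug and ethidium to DNA.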

[2] = system: Nucleic Acid; experiment: Binding constant to poly(dA-dT)DNA by ethidium bromide displacement; format: nucleic-acid assay; how it was run: as §1

SMILES	Log K [1]	Log K [2]
COc1ccc(C(=O)NCCN(C)C)c2nc3ccccc3cc12.Cl.Cl	7.96	7.05
CN(C)CCNC(=O)c1ccc2nc3ccccc3cc2c1.Cl.Cl	7.59	7.17
CN(C)CCNC(=O)c1cc(Cl)cc2cc3ccccc3nc12.Cl.Cl	7.31	7.12
COc1cc(C(=O)NCCN(C)C)c2nc3ccccc3cc2c1.Cl.Cl	8.25	7.14
CN(C)CCCCNC(=O)c1cccc2cc3ccccc3nc12.Cl	6.4	6.47
COc1ccc2nc3c(C(=O)NCCN(C)C)cccc3cc2c1.Cl.Cl	7.07	6.87
Cc1ccc2cc3ccccc3nc2c1C(=O)NCCN(C)C.Cl.Cl	6.11	5.74
CN(C)CCCCCCNC(=O)c1cccc2cc3ccccc3nc12.Cl	6.36	6.54
COc1cccc2nc3c(C(=O)NCCN(C)C)cccc3cc12.Cl	7.23	7.14
CN(C)CCNC(=O)c1cccc2cc3ccccc3nc12.Cl.Cl	6.54	
CN(C)CCNC(=O)c1cccc2cc3ccc(Cl)cc3nc12.Cl	7	6.73
CNCCNC(=O)c1cccc2cc3ccccc3nc12.Cl.Cl	6.9	6.43
COc1ccc2cc3cccc(C(=O)NCCN(C)C)c3nc2c1.Cl.Cl	8.39	7.28
Cc1ccc(C(=O)NCCN(C)C)c2nc3ccccc3cc12.Cl.Cl	8.06	7.12
Cc1c2ccccc2nc2c(C(=O)NCCN(C)C)cccc12.Cl.Cl	8.48	7.75
Cc1cccc2nc3c(C(=O)NCCN(C)C)cccc3cc12.Cl.Cl.O.O	7.96	7

SMILES	Log K [1]	Log K [2]
CCN(CC)CCNC(=O)c1cccc2cc3ccccc3nc12.Cl.Cl	6.38	6.51
CN(C)CCNC(=O)c1ccc2cc3ccccc3nc2c1.Cl.Cl	6.94	7.12
CN(C)CCNC(=O)c1cccc2cc3cccc(Cl)c3nc12.Cl.Cl	7.2	7.63
Cc1ccc2nc3c(C(=O)NCCN(C)C)cccc3cc2c1.Cl.Cl	7	6.97
CN(C)CCNC(=O)c1cccc2cc3c(Cl)cccc3nc12.Cl.Cl.Cl	6.96	7
Cc1ccc2cc3cccc(C(=O)NCCN(C)C)c3nc2c1.Cl.Cl	7.26	6.93
Cc1cccc2cc3cccc(C(=O)NCCN(C)C)c3nc12.Cl.Cl	7.42	6.99
Cl.Cl.NCCNC(=O)c1cccc2cc3ccccc3nc12	7.03	7.05
CN(C)CCCNC(=O)c1cccc2cc3ccccc3nc12.Cl.Cl	6.42	6.13
Cc1cc(C(=O)NCCN(C)C)c2nc3ccccc3cc2c1.Cl.Cl	7.05	6.8
CN(C)CCCCCNC(=O)c1cccc2cc3ccccc3nc12.Cl	6.38	6.16
CN(C)CCNC(=O)c1ccc(Cl)c2cc3ccccc3nc12.Cl.Cl	7.2	7.18
Cl.Cl.O=C(NCCNCCO)c1cccc2cc3ccccc3nc12	7.09	6.94
CN(C)CCNC(=O)c1cccc2cc3cc(Cl)ccc3nc12.Cl.Cl	7.14	6.87
COc1cccc2cc3cccc(C(=O)NCCN(C)C)c3nc12.Cl	7.38	7.96
